Literature values, collected in US11667649B2 (dated 2023).

Test system: ALK-positive NSCLC and other cancers
Conditions: treatment of ALK-positive NSCLC and other cancers; cited from earlier work

Q: Which median progression-free survival does the source give for `C[C@@H](Oc1cc(-c2cnn(C3CCNCC3)c2)cnc1N)c1c(Cl)ccc(F)c1Cl` [Crizotinib, crizotinib] here?
A: 8-11 months

Q: What about the overall response rate of the same molecule?
A: 60-80%
